The list is not random: actives were taken first. Their share in the collection is about 1.6%.
CAL PDZ FP-1: CAL PDZ peptide-binding inhibitors, primary screen, biochemical, fluorescence polarization, Cer-tagged CAL PDZ, HTS; AID 504414, 2011; Golgi-associated PDZ and coiled-coil motif-containing protein (Homo sapiens), Q9HD26; inhibition, % at 20 µM; 330,000 compounds, 0.02% hits; purified CAL PDZ, TMR-peptide fluorescence polarization, 1 h;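 active means highest replicate inhibition of at least 40%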;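 further: plate controls were DMSO neutral control wells for no effect and unlabeled competitor peptide control wells for full effect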
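System: purified tagged CAL PDZ domain construct (CerCALP). Schedule: 1 h incubation at room temperature before polarization reading. Medium: 25 mM sodium phosphate pH 7.4, 150 mM NaCl, TCEP, IgG, Thesit. Read-out: percent inhibition from loss of millipolarization. Measured by: FP readout, S and P plane fluorescence. Probe or stimulus: fluorescent TMR peptide probe.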
PglD inh: C. jejuni PglD acetyltransferase inhibitors, primary screen, biochemical, DTNB colorimetric, single point; 360,000 compounds, 0.098% hits; AID 602405, 2012; purified PglD enzyme, DTNB colorimetric CoA detection; UDP-N-acetylbacillosamine N-acetyltransferase PglD (Campylobacter jejuni); inhibition, % at 12.5 µM; in the data active means inhibition above about 16%, passing the limit was not always enough
CAL PDZ FP-2: untagged CAL PDZ binding inhibitors, primary screen, biochemical, fluorescence polarization, HTS; Golgi-associated PDZ and coiled-coil motif-containing protein (Homo sapiens), Q9HD26; purified CAL PDZ, TMR-peptide fluorescence polarization, 1 h; inhibition, % at 24.9 µM; 300,000 compounds, 0.92% hits; AID 602252, 2012;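 active means mean inhibition of at least 30% with at least half of replicates also reaching 30%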;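 further: 0% = DMSO neutral control and 100% = excess unlabeled competitor peptide PRC23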
ARNT TACC3 PPI: disruptors of ARNT/TACC3 protein interaction, primary screen, biochemical, AlphaScreen, single concentration. Transforming acidic coiled-coil-containing protein 3 (Homo sapiens), Q9Y6A5. inhibition, % at 9.99 µM. AID 623870, 2012. AlphaScreen His-ARNT PAS-B/GST-TACC3 binding, luminescence; TACC3 fragment carries E629A point mutation. 390,000 compounds, 0.66% hits;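 active means mean inhibition of replicates at least 50% and at least half of replicates each reaching 50%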;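 further: 0% = complete ARNT plus TACC3 wells and 100% = ARNT alone without TACC3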
Vif inh: HIV Vif self-association inhibitors, primary screen, imaging, HEK293T, single point; HEK293T cells, Vif self-association by quenched fluorescence, 24 h; inhibition, % at 7.49 µM; 340,000 compounds, 0.35% hits; in the data active means inhibition above about 50%, passing the limit was not always enough
Yeast UUG start: alters start codon recognition fidelity in yeast; S. cerevisiae UUG-firefly luciferase reporter, luminescence/redox ratio; activity score, % at 18.7 µM; actives 0.13% (n = 350,000); AID 602363;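 active = replicate mean at a twofold rise or more, about +100% in these data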;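 also: firefly luciferase made from a UUG start codon reports start codon fidelity; reporter light over untreated wells divided by growth signal over untreated wells; some hits fall short of that in this replicate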
Active calls of the source: *; / = no result.

item	CAL PDZ FP-1	PglD inh	CAL PDZ FP-2	ARNT TACC3 PPI	Vif inh	Yeast UUG start	molecule
1	/	2	/	8	/	4	C[C@@H]1CN([C@@H](C)CO)C(=O)Cc2cc(NC(=O)CCN3CCOCC3)ccc2O[C@H]1CN(C)Cc1ccccc1
2	-2	0	-2	65*	-3	-45	Oc1cc(-c2cccnc2)cc2cccnc12
3	1	-3	1	66*	-4	-30	Oc1cc(Nc2ccccc2)cc2cccnc12
4	/	-6	/	/	/	-66	Oc1cccc2cc(Nc3ccccc3)cnc12
5	/	2	/	-3	/	-5	CCC(=O)N[C@H]1CC[C@@H](CC(=O)NCc2ccccc2OC)O[C@H]1CO
6	-3	0	32*	-3	-5	-13	CCOC(=O)Cc1csc(NC(=O)/C=C/c2ccc(OC)cc2)n1
7	-3	/	-6	10	-1	/	CCOC(=O)Cc1csc(NC(=O)/C=C\c2ccccc2)n1
8	-2	/	58*	2	4	/	O=C(CNc1ccccc1F)N/N=C/C1CC=CCC1 (stereo not drawn)
9	0	0	0	13*	-3	-19	Oc1c(CN2CCOCC2)cc(CN2CCOCC2)c(O)c1O
10	-1	/	0	-5	1	/	CCCc1cc(CN2CCOCC2)c(O)c(CN2CCOCC2)c1O
11	0	-5	-5	-5	85*	-9	CCOC(=O)C1(Cc2cccc(F)c2)CCN(Cc2nc(CC)[nH]c2C)CC1
12	-1	/	-4	1	-7	/	CCOC(=O)C1(Cc2cccc(F)c2)CCN(Cc2cnn(CC)c2)CC1
13	-1	-3	4	/	6	11	CCOC(=O)C1(Cc2ccccc2)CCN(Cc2cnn(C(C)C)c2)CC1
14	0	/	75*	-4	-6	/	CCOC(=O)C1(CCCc2ccccc2)CCN(Cc2cnn(C)c2)CC1
15	0	5	0	12	119*	3	CCOC(=O)C1(Cc2ccccc2)CCN(Cc2csc(C(C)=O)c2)CC1
16	0	1	54*	-1	-4	1	COc1ccc(OC)c(C2=NS(=O)(=O)N(C)C(C(=O)Nc3ccc(C(C)=O)cc3)=C2)c1
17	-3	-2	55*	3	4	7	COc1ccc(C(CNC(=O)c2ccc(NS(=O)(=O)c3ccc(F)c(C)c3)cc2)N2CCCC2)cc1 (stereo not drawn)
18	-1	/	48*	-2	-2	/	COc1ccc(NC(C)=O)cc1NC(=O)C1CCCN1C(=O)c1cccs1 (stereo not drawn)
19	-2	3	-1	38	64*	-6	COc1ccccc1NC(=S)N1CCN(C(=O)C2CCCO2)CC1 (stereo not drawn)
20	0	5	1	-20	-3	-13	O=C(C1CCCO1)N1CCN(C(=S)Nc2cccc(F)c2)CC1 (stereo not drawn)
21	-1	/	61*	2	-5	/	COC(=O)c1ccccc1NC(=S)N1CCN(C2CCCCC2)CC1
22	-2	/	67*	0	-2	/	Cc1cccc(NC(=S)N2CCN(C(=O)C3CCCO3)CC2)c1 (stereo not drawn)
23	/	2	/	-29	/	-9	C[C@H]1CN([C@@H](C)CO)C(=O)c2cc(-c3ccc(F)cc3)cnc2O[C@H]1CN(C)Cc1cncnc1
24	/	0	/	-7	/	/	O=C([C@H]1N[C@H]2c3ccc(-c4ccc(F)cc4)c(=O)n3C[C@H]2[C@@H]1CO)N1CCOCC1
25	38	/	-15	41*	-5	/	COc1cc(N(C)C)ccc1C=c1c2ccccc2n2c1cc(-c1ccccc1)[n+]2C
26	24	/	-14	28	-14	/	CN(C)c1ccc(C=c2c3ccccc3n3c2cc(-c2ccccc2)[n+]3C)cc1
27	-2	-1	43*	-5	9	-12	O=C(Nc1ccccc1C(=O)Nc1ccncc1)c1ccccc1
28	3	6	-23	6	110*	3	O=C(Nc1ccccc1C(=O)O)c1cccc(C(=O)Nc2ccccc2C(=O)O)c1
29	0	/	-2	-7	71*	/	O=C(Nc1ccccc1C(=O)N1CCCCCC1)c1ccccc1
30	/	-2	/	0	/	7	C[C@@H]1CN([C@H](C)CO)C(=O)c2cc(NC(=O)Cc3cn(C)c4ccccc34)ccc2O[C@@H]1CN(C)Cc1ccc(Oc2ccccc2)cc1

Complete entries from above. Order of screens: CAL PDZ FP-1 | PglD inh | CAL PDZ FP-2 | ARNT TACC3 PPI | Vif inh | Yeast UUG start
CCOC(=O)C1(Cc2ccccc2)CCN(Cc2csc(C(C)=O)c2)CC1 in the list: 0 | 5 | 0 | 12 | 119* | 3
Oc1c(CN2CCOCC2)cc(CN2CCOCC2)c(O)c1O in the list: 0 | 0 | 0 | 13* | -3 | -19

The listing picks up, starting 4 compounds before the break.
item	CAL PDZ FP-1	PglD inh	CAL PDZ FP-2	ARNT TACC3 PPI	Vif inh	Yeast UUG start	molecule
27	-2	-1	43*	-5	9	-12	O=C(Nc1ccccc1C(=O)Nc1ccncc1)c1ccccc1
28	3	6	-23	6	110*	3	O=C(Nc1ccccc1C(=O)O)c1cccc(C(=O)Nc2ccccc2C(=O)O)c1
29	0	/	-2	-7	71*	/	O=C(Nc1ccccc1C(=O)N1CCCCCC1)c1ccccc1
30	/	-2	/	0	/	7	C[C@@H]1CN([C@H](C)CO)C(=O)c2cc(NC(=O)Cc3cn(C)c4ccccc34)ccc2O[C@@H]1CN(C)Cc1ccc(Oc2ccccc2)cc1
31	-1	-3	184*	3	1	-18	Cc1ccc(/C=C2/Sc3ccccc3N(CC(=O)NCC3CCCO3)C2=O)cc1 (stereo not drawn)
32	-1	-9	48*	0	7	-15	COCCNC(=O)c1cc2cc(Br)cc(Br)c2oc1=O
33	0	1	62*	1	-10	-1	CN(CCOc1ccccc1)C(=O)c1ccc2c(c1)OCO2
34	/	7	/	14	/	-21	C[C@H](CO)N1C[C@H](C)[C@H](CN(C)Cc2ccccc2F)Oc2ncc(C#CCN(C)C)cc2C1=O
35	0	1	-6	18*	-5	-9	O=Nc1c(O)ccc2cc(S(=O)(=O)O)ccc12
36	1	11	/	36*	-11	-3	CN(C)c1ccc2cc(S(=O)(=O)O)cc(O)c2c1
37	/	23	/	4	/	8	CC(C)NC(=O)Nc1cccc2c1O[C@H](CN(C)S(=O)(=O)c1ccc(F)cc1)[C@H](C)CN([C@@H](C)CO)C2=O
38	/	-1	/	-5	/	-14	COc1ccc(S(=O)(=O)N(C)C[C@@H]2Oc3c(NC(=O)c4ccncc4)cccc3C(=O)N([C@@H](C)CO)C[C@H]2C)cc1
39	-4	1	0	-3	2	-8	CCCn1cc(NC(=O)c2cc(-c3ccccc3)on2)cn1
40	-2	/	7	-2	-3	/	CCCc1cc(C(=O)Nc2cnn(Cc3ccc(F)cc3)c2)no1
41	-1	1	-4	-10	86*	3	COc1ccc(-c2cc(C(=O)Nc3cnn(Cc4ccccc4C)c3)no2)cc1OC
42	/	/	-3	-3	57*	/	O=C(Nc1cnn(Cc2ccc(F)cc2)c1)c1cc(-c2cccs2)on1
43	/	4	/	2	/	22	COCCNC(=O)C[C@@H]1CC[C@@H]2[C@@H](COc3ccc(NC(=O)C4CCOCC4)cc3C(=O)N2C)O1
44	/	-1	/	4	/	7	C[C@@H]1CN([C@@H](C)CO)S(=O)(=O)c2ccc(/C=C/c3ccccc3)cc2O[C@@H]1CN(C)C(=O)CN1CCOCC1

Source: PubChem (Broad Institute)
